The nature of data set [1]: Sub-acute toxicity in Kunming mouse assessed as effect on spleen cellular morphology at 1000 mg/kg, po administered as repetitive dose for 14 days by H and E staining based analysis. The format is organism-based. The note with it: in vivo, 336 h, time 14 day.
A short description of data set [2]: Acute toxicity in Kunming mouse assessed as effect on body weight at 500 to 2000 mg/kg, po administered as single dose for 14 days. The format is organism-based. The note with it: in vivo, 336 h, dose 500-2000 mg/kg, time 14 day.
Data set [3] addresses Poly [ADP-ribose] polymerase 2 (Homo sapiens, UniProt Q9UGN5). Put plainly: Inhibition of GST-tagged human PARP2 at 1 uM incubated for 30 mins by chemiluminescence based UV/visible spectrophotometric analysis relative to control.
Data set [4] can be described thus: Acute toxicity in Kunming mouse assessed as mortality at 500 to 2000 mg/kg, po administered as single dose for 14 days. The format is organism-based. The note with it: in vivo, 336 h, dose 500-2000 mg/kg, time 14 day.
Data set [5] can be described thus: Toxicity in female BALB/c nude mouse xenografted with human SK-OV-3 cells assessed as effect on body weight at 25 to 50 mg/kg, po administered via gavage once daily for 31 days. The note with it: in vivo, 744 h, dose 25-50 mg/kg, time 31 day. Format: organism-based. A general note: In xenograft studies the graft and the host belong to different species.
The nature of data set [6]: Sub-acute toxicity in Kunming mouse assessed as effect on kidney structure at 1000 mg/kg, po administered as repetitive dose for 14 days by H and E staining based analysis. Format: organism-based. The note with it: in vivo, 336 h, time 14 day.
Data set [7] is described as follows: Acute toxicity in Kunming mouse assessed as effect on lung weight at 500 to 2000 mg/kg, po administered as single dose for 14 days. The note with it: in vivo, 336 h, dose 500-2000 mg/kg, time 14 day. The format is organism-based.
A short description of data set [8]: Sub-acute toxicity in Kunming mouse assessed as effect on behavior at 1000 mg/kg, po administered as repetitive dose for 14 days. Format: organism-based. The note with it: in vivo, 336 h, time 14 day.
Data set [9] relates to HeLa. Put plainly: Antitumor activity against human HeLa cells xenografted in female BALB/c nude mouse assessed as tumor suppression rate at 50 mg/kg, po administered via gavage once daily for 35 days relative to control. Format: functional. The note with it: time 35 day.
Data set [10] can be described thus: Toxicity in female BALB/c nude mouse xenografted with human HeLa cells assessed as effect on body weight at 25 to 50 mg/kg, po administered via gavage once daily for 35 days. The format is organism-based. The note with it: in vivo, 840 h, dose 25-50 mg/kg, time 35 day.
Data set [11] in a line: Toxicity in female BALB/c nude mouse xenografted with human SK-OV-3 cells assessed as effect on diet at 25 to 50 mg/kg, po administered via gavage once daily for 31 days. Format: organism-based. The note with it: in vivo, 744 h, dose 25-50 mg/kg, time 31 day.
The nature of data set [12]: Toxicity in female BALB/c nude mouse xenografted with human SK-OV-3 cells assessed as effect on behavior at 25 to 50 mg/kg, po administered via gavage once daily for 31 days. Format: organism-based. The note with it: in vivo, 744 h, dose 25-50 mg/kg, time 31 day.
The nature of data set [13]: Sub-acute toxicity in Kunming mouse assessed as effect on spleen structure at 1000 mg/kg, po administered as repetitive dose for 14 days by H and E staining based analysis. Format: organism-based. The note with it: in vivo, 336 h, time 14 day.
Data set [14] can be described thus: Sub-acute toxicity in Kunming mouse assessed as effect on external signs at 1000 mg/kg, po administered as repetitive dose for 14 days. Format: organism-based. The note with it: in vivo, 336 h, time 14 day.
Data set [15] in a line: Acute toxicity in Kunming mouse assessed as effect on liver weight at 500 to 2000 mg/kg, po administered as single dose for 14 days. Format: organism-based. The note with it: in vivo, 336 h, dose 500-2000 mg/kg, time 14 day.
A short description of data set [16]: Sub-acute toxicity in Kunming mouse assessed as effect on liver structure at 1000 mg/kg, po administered as repetitive dose for 14 days by H and E staining based analysis. The format is organism-based. The note with it: in vivo, 336 h, time 14 day.
A short description of data set [17]: Acute toxicity in Kunming mouse assessed as change in behavior at 500 to 2000 mg/kg, po administered as single dose for 14 days. The note with it: in vivo, 336 h, dose 500-2000 mg/kg, time 14 day. Format: organism-based.
A short description of data set [18]: Sub-acute toxicity in Kunming mouse assessed as effect on spleen weight at 1000 mg/kg, po administered as repetitive dose for 14 days. The note with it: in vivo, 336 h, time 14 day. Format: organism-based.
The nature of data set [19]: Sub-acute toxicity in Kunming mouse assessed as effect on heart structure at 1000 mg/kg, po administered as repetitive dose for 14 days by H and E staining based analysis. Format: organism-based. The note with it: in vivo, 336 h, time 14 day.
The nature of data set [20]: Acute toxicity in Kunming mouse assessed as effect on spleen weight at 500 to 2000 mg/kg, po administered as single dose for 14 days. Format: organism-based. The note with it: in vivo, 336 h, dose 500-2000 mg/kg, time 14 day.
A short description of data set [21]: Sub-acute toxicity in Kunming mouse assessed as mortality at 1000 mg/kg, po administered as repetitive dose for 14 days. The format is organism-based. The note with it: in vivo, 336 h, time 14 day.
Data set [22] in a line: Sub-acute toxicity in Kunming mouse assessed as effect on body weight at 1000 mg/kg, po administered as repetitive dose for 14 days. The format is organism-based. The note with it: in vivo, 336 h, time 14 day.
The nature of data set [23]: Acute toxicity in Kunming mouse assessed as effect on kidney weight at 500 to 2000 mg/kg, po administered as single dose for 14 days. The note with it: in vivo, 336 h, dose 500-2000 mg/kg, time 14 day. Format: organism-based.
A short description of data set [24]: Sub-acute toxicity in Kunming mouse assessed as effect on lung structure at 1000 mg/kg, po administered as repetitive dose for 14 days by H and E staining based analysis. The format is organism-based. The note with it: in vivo, 336 h, time 14 day.
A short description of data set [25]: Sub-acute toxicity in Kunming mouse assessed as effect on lung cellular morphology at 1000 mg/kg, po administered as repetitive dose for 14 days by H and E staining based analysis. The note with it: in vivo, 336 h, time 14 day. Format: organism-based.
A short description of data set [26]: Sub-acute toxicity in Kunming mouse assessed as effect on kidney cellular morphology at 1000 mg/kg, po administered as repetitive dose for 14 days by H and E staining based analysis. The format is organism-based. The note with it: in vivo, 336 h, time 14 day.
Data set [27] is described as follows: Sub-acute toxicity in Kunming mouse assessed as effect on heart weight at 1000 mg/kg, po administered as repetitive dose for 14 days. Format: organism-based. The note with it: in vivo, 336 h, time 14 day.
Data set [28] in a line: Sub-acute toxicity in Kunming mouse assessed as effect on lung weight at 1000 mg/kg, po administered as repetitive dose for 14 days. Format: organism-based. The note with it: in vivo, 336 h, time 14 day.
Data set [29] in a line: Acute toxicity in Kunming mouse assessed as effect on external signs at 500 to 2000 mg/kg, po administered as single dose for 14 days. Format: organism-based. The note with it: in vivo, 336 h, dose 500-2000 mg/kg, time 14 day.
Data set [30] in a line: Sub-acute toxicity in Kunming mouse assessed as effect on kidney weight at 1000 mg/kg, po administered as repetitive dose for 14 days. The note with it: in vivo, 336 h, time 14 day. Format: organism-based.
Data set [31] is described as follows: Toxicity in nude mouse assessed as effect on body weight at 50 mg/kg, po. Format: organism-based. The note with it: in vivo.
Data set [32] can be described thus: Sub-acute toxicity in Kunming mouse assessed as effect on heart cellular morphology at 1000 mg/kg, po administered as repetitive dose for 14 days by H and E staining based analysis. The note with it: in vivo, 336 h, time 14 day. The format is organism-based.
A short description of data set [33]: Sub-acute toxicity in Kunming mouse assessed as effect on liver cellular morphology at 1000 mg/kg, po administered as repetitive dose for 14 days by H and E staining based analysis. The format is organism-based. The note with it: in vivo, 336 h, time 14 day.
A short description of data set [34]: Acute toxicity in Kunming mouse assessed as effect on heart weight at 500 to 2000 mg/kg, po administered as single dose for 14 days. The format is organism-based. The note with it: in vivo, 336 h, dose 500-2000 mg/kg, time 14 day.
The test system of data set [35] is HeLa. Put plainly: Antitumor activity against human HeLa cells xenografted in female BALB/c nude mouse assessed as tumor suppression rate at 25 mg/kg, po administered via gavage once daily for 35 days relative to control. Format: functional. The note with it: time 35 day.
The nature of data set [36]: Sub-acute toxicity in Kunming mouse assessed as effect on liver weight at 1000 mg/kg, po administered as repetitive dose for 14 days. Format: organism-based. The note with it: in vivo, 336 h, time 14 day.
A short description of data set [37]: Selectivity index, ratio of IC50 for inhibition of recombinant human PARP-1 to IC50 for inhibition of recombinant mouse PARP-2.

Protein sequences, listed by entry. Tags and fused reporters are not part of them. Lines headed by an entry give the natural chain unless they say otherwise; changes in a name come on top.
UniProt Q9UGN5: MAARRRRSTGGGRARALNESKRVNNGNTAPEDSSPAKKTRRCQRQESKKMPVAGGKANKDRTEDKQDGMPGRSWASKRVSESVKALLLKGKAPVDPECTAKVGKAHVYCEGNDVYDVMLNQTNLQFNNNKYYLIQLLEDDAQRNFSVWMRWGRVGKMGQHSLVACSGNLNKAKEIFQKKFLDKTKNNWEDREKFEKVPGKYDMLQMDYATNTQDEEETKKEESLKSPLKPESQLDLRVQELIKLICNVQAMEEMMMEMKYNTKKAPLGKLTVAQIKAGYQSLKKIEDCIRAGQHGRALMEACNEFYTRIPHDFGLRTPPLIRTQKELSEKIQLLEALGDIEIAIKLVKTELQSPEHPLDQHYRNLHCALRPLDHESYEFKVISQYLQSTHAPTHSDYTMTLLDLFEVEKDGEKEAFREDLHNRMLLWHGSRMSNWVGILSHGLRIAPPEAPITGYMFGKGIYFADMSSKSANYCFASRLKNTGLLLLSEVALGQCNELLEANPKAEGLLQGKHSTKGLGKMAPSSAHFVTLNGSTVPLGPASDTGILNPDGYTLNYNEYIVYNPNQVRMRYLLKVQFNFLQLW

Results on 18 compounds are retold here after ChEMBL document CHEMBL5512675, “Design of Selective PARP-1 Inhibitors and Antitumor Studies” (J Med Chem, 2024).

Usually inhibition stands for the percentage by which the read-out fell short of the control. High values mean a strong effect, low ones a weak effect. For `COc1cc(-c2nc3c(C(N)=O)cccc3[nH]2)cc(Br)c1OS(=O)(=O)c1ccccc1C`, the Activity entry in data set [1], in data set [2], in data set [4], in data set [5], in [6] and in [7] was “Non-Toxic” in each case. Moreover, the Activity result was “Non-Toxic” in data set [8]; 76.55% with HeLa [9]; “Non-Toxic” in data set [10]; “Non-Toxic” in data set [11]; “Non-Toxic” in [12]; “Non-Toxic” in data set [13]. In addition, the Activity result in data set [14], in data set [15], in data set [16], in data set [17], in [18] and in data set [19] was “Non-Toxic” throughout. In addition, the Activity result in [20], in [21], in data set [22], in [23], in data set [24] and in data set [25] was “Non-Toxic” each time. Moreover, the Activity entry in data set [26], in [27], in data set [28], in [29], in data set [30] and in data set [31] was “Non-Toxic” in each case. The Activity entry in data set [32] is on record as “Non-Toxic”; in data set [33], “Non-Toxic”; in [34], “Non-Toxic”; in the data set with HeLa [35] it was 69.86%; in [36], “Non-Toxic”. Further, the inhibition in [3] was determined as 21.9%.
In [3], `COc1ccc(S(=O)(=O)Oc2c(Br)cc(-c3nc4c(C(N)=O)cccc4[nH]3)cc2OC)cc1` yielded an inhibition of 46.8%.
As for `COc1cc(/C=N/NC(N)=S)cc(Br)c1OC(C)=O`, the inhibition in data set [3] was under 5%.
The compound `COc1cc(-c2nc3c(C(N)=O)cccc3[nH]2)c(Br)c(Br)c1OS(=O)(=O)c1ccc(NC(C)=O)cc1` registered an inhibition in [3] of 13.4%.
In [3], `COc1cc(-c2nc3c(C(N)=O)cccc3[nH]2)cc(Br)c1OS(=O)(=O)c1cccc2ccccc12` displayed an inhibition of under 5%.
Turning to `Cn1cccc1/C=C1\C(=O)NC(=O)c2ccccc21`, in [37], the Ratio IC50 came out at 100.
Take `COc1cc(/C=N/NC(N)=S)c(Br)c(Br)c1OC(=O)c1ccc(CCl)cc1`: in data set [3], the inhibition was 15.5%.
For the compound `COc1cc(-c2nc3c(C(N)=O)cccc3[nH]2)c(Br)c(Br)c1OC`, the inhibition in [3] turned out to be 38.8%.
The same measure, in the same setting: the figure for `COc1cc(-c2nc3c(C(N)=O)cccc3[nH]2)ccc1OS(=O)(=O)c1c(C)cc(C)cc1C` is 45.2%; for `COc1cc(-c2nc3c(C(N)=O)cccc3[nH]2)c(Br)c(Br)c1OS(=O)(=O)c1ccc(F)c(Cl)c1` it is under 5%.
The same measure, in the same setting: the same measure for `CCCS(=O)(=O)Oc1c(OC)cc(/C=N/NC(N)=S)c(Br)c1Br`: 23.8%.
On the same count and under the same terms, the same measure for `COc1cc(/C=N/NC(N)=S)c(Br)c(Br)c1OC(=O)c1ccc(Br)cc1`: 17.6%; for `COc1cc(-c2nc3c(C(N)=O)cccc3[nH]2)c(Br)c(Br)c1OCc1ccccc1C(F)(F)F`: under 5%; for `COc1cc(-c2nc3c(C(N)=O)cccc3[nH]2)c(Br)c(Br)c1OS(=O)(=O)c1ccc(C)cc1`: under 5%.
Turning to `COc1cc(/C=N/NC(N)=S)ccc1OS(=O)(=O)C(F)(F)F`, in data set [3], the inhibition amounted to 17.1%.
`COc1cc(/C=N/NC(N)=S)c(Br)c(Br)c1OC(=O)c1ccco1`: in [3], the inhibition turned out to be 7.35%.
The same measure, in the same setting: the figure for `COc1cc(-c2nc3c(C(N)=O)cccc3[nH]2)cc(Br)c1OS(=O)(=O)c1c(C)cc(C)cc1C` is 27.1%.
Same read-out and setting: the figure for `COc1cc(-c2nc3c(C(N)=O)cccc3[nH]2)c(Br)c(Br)c1OCc1ccc(Br)cc1` is 5.35%.
